“And” between values parts separate entries of the source, which are not always exact repeats. Equal values may be shown once.
Experiments:
B*0701 = B*0701 (Homo sapiens, UniProt P01889); experiment: biochemical
B*5401 = B*5401 (Homo sapiens, UniProt P01889, A329T/C349S/D138N/D201E/E176V/E187T/E204Q/E69G/I76V/K202T/L119W/R155S/R180L/S121T/S35A/S48A/V127L/V306I/V36M/Y140L); experiment: biochemical
A2.1 HLA molecules = A2.1 HLA molecules (Homo sapiens, UniProt P04439, D140Y/D185E/D98H/E176V/E277Q/G131W/G231S/I119V/I121R/I166T/I218V/L300P/L318F/N151K/N90K/P208A/P217A/Q86G/Q94H/R138H/R169H/T345S)
[1] = system: B7-Like Supertype (B*0701, B*3501, B*5101, B*5301, B*5401); assay type: binding, human
B*0702 (B*0701) = B*0702 (B*0701) (Homo sapiens, UniProt P01889); assay type: binding; conditions: Table 25; given as whole numbers, no unit

## CC[C@H](C)[C@H](NC(=O)[C@H](Cc1ccc(O)cc1)NC(=O)[C@H](CC(C)C)NC(=O)[C@H](CCSC)NC(=O)[C@H](CO)NC(=O)[C@@H](NC(=O)[C@@H]1CCCN1C(=O)[C@@H](N)C(C)C)[C@@H](C)CC)C(=O)N[C@@H](CC(C)C)C(=O)O
B*0701
  IC50: 164 nM
B*5401
  IC50: 1490 nM

## CC[C@H](C)[C@H](NC(=O)[C@@H](NC(=O)[C@H](CC(C)C)NC(=O)[C@H](CC(C)C)NC(=O)CNC(=O)[C@H](C)NC(=O)[C@@H](NC(=O)[C@@H]1CCCN1C(=O)[C@@H](N)CCSC)C(C)C)[C@@H](C)CC)C(=O)O
B*0701
  IC50: 86 nM

## YSFLPSDFFPSV
A2.1 HLA molecules
  A2 Bind.: 0.0190

## CC[C@H](C)[C@H](NC(=O)[C@H](Cc1ccc(O)cc1)NC(=O)[C@H](CC(C)C)NC(=O)[C@H](Cc1c[nH]cn1)NC(=O)[C@H](CO)NC(=O)[C@@H](NC(=O)[C@@H]1CCCN1C(=O)[C@@H](N)C(C)C)[C@@H](C)CC)C(=O)N[C@@H](CC(C)C)C(=O)O
[1]
  x-rxn: 4

## LVFGIELMEV
A2.1 HLA molecules
  A2: 0.1100
  A2 Bind.: 0.1100

## FLLTRILTI
A2.1 HLA molecules
  A2 Bind.: 0.6300 and 0.9300

## C[C@H](NC(=O)[C@H](C)NC(=O)[C@H](Cc1ccc(O)cc1)NC(=O)[C@H](CCCCN)NC(=O)[C@H](Cc1ccccc1)NC(=O)[C@@H]1CCCN1C(=O)[C@@H](N)Cc1ccccc1)C(=O)N[C@@H](C)C(=O)N[C@@H](Cc1ccccc1)C(=O)O
B*0702 (B*0701)
  B*0701 binding: 0
